Earlier results on one compound are cited in patent US9669049B2, “Compositions comprising gamma retrovirus vectors and methods of treating proliferative disorders” (Tocagen Inc., priority 2010, dated 2017).

For the data set the following is noted: on the basis of reversible thrombocytopenia, cited from earlier work.

Like-named read-outs stand apart in the source and are kept apart here.

For the compound `N#CC[C@H](C1CCCC1)n1cc(-c2ncnc3[nH]ccc23)cn1` [Ruxolitinib], the maximum tolerated doses entry runs as follows: (once daily) “or 100 mg once”; (twice daily) 25 mg twice daily.
